According to patent publication US20170183318A1, “AMIDE COMPOUNDS, METHODS FOR PREPARATION, AND USE THEREOF AS AGENTS FOR THE TREATMENT AND PREVENTION OF DISEASES CAUSED BY RNA- AND/OR DNA-CONTAINING VIRUSES, AND CONCOMITANT DISEASES” (OBSCHESTVO S OGRANICHENNOI OTVETSTVENNOSTIYU …, priority 2014, published 2017):

System: human virus hRSV
Experiment: Antiviral activity against mouse-adapted RS virus (body weight; viral titer in lungs titrated in Hep-2 cells)
Format: in vivo, mice
Settings: for log reduction at 30 mg/kg: human respiratory syncytial virus, HEp-2, po

## NC(=O)c1ncn([C@@H]2O[C@H](CO)[C@@H](O)[C@H]2O)n1 [Ribavirin, reference compound]
Day 5, 10% lung suspension titrated in Hep-2 cells (TCID), compounds 30 mg/kg, Ribavirin 40 mg/kg
  hRSV in the lungs of mice, Day 5, lg: 2.1 ± 0.12 lg
Day 5, compounds 30 mg/kg, Ribavirin 40 mg/kg, orally once daily for 5 days, n = 6
  Body weight of the mice on day 5 after infection with hRSV (M ± SD): 16.20 ± 0.24
Day 7, 10% lung suspension titrated in Hep-2 cells (TCID), compounds 30 mg/kg, Ribavirin 40 mg/kg
  hRSV in the lungs of mice, Day 7, lg: 1.15 ± 0.12 lg
Day 7, compounds 30 mg/kg, Ribavirin 40 mg/kg, orally once daily for 5 days, n = 6
  Body weight of the mice on day 7 after infection with hRSV (M ± SD): 17.23 ± 0.22
120 h, read-out: Suppression of the reproduction of hRSV in the lungs of mice, Day 5, Δlg
  log reduction at 30 mg/kg: 2.4 ± 0.12
168 h, read-out: Suppression of the reproduction of hRSV in the lungs of mice, Day 7, Δlg
  log reduction at 30 mg/kg: 2.4 ± 0.12

Where two headings read alike, the source gives them in different places.
